Amino acid sequences for entries named in this document (tags omitted).
UniProt P06276, whole entry: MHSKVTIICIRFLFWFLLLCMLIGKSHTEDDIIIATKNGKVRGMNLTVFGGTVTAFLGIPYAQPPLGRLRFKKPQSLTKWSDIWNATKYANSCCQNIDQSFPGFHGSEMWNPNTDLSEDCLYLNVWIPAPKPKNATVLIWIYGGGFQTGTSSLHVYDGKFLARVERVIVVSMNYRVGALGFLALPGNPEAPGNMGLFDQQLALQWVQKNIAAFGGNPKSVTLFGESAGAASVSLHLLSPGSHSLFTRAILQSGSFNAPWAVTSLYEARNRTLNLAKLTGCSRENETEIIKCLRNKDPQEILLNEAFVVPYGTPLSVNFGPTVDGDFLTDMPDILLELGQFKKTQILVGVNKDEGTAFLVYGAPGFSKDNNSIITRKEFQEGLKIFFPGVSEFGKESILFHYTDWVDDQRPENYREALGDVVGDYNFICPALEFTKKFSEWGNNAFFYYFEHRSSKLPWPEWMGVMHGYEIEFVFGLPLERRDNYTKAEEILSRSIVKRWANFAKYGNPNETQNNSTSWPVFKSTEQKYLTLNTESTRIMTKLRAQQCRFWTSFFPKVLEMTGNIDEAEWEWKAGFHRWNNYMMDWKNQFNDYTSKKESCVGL

In ChEMBL document CHEMBL4765338, “Simple analogues of natural product chelerythrine: Discovery of a novel anticholinesterase 2-phenylisoquinolin-2-ium scaffold with excellent potency against acetylcholinesterase” (Eur J Med Chem, 2020):

Biological target: Cholinesterase (Homo sapiens, UniProt P06276)

SMILES: CCN(C)C(=O)Oc1cccc([C@H](C)N(C)C)c1 [RIVASTIGMINE]
- IC50: 2860 nM
